Test results as given in patent US20180113119A1, “METHODS FOR CHARACTERIZING TIME-BASED HEPATOTOXICITY” (HUREL CORPORATION, priority 2015, published 2018).

Tested on: primary human hepatocyte cocultures vs HepG2 cells
Assay: Toxicity curve of primary human hepatocyte coculture compared to HepG2 cells, Promega ATP assay
Conditions: four days exposure, one repeat dose on second day

CC(=O)N1CCN(c2ccc(OCC3COC(Cn4ccnc4)(c4ccc(Cl)cc4Cl)O3)cc2)CC1 (stereo not shown) [ketoconazole]
shift of human hepatocyte coculture toxicity curve as compared to HepG2 cell toxicity curve: right shift
